“And” between values parts separate entries of the source, which are not always exact repeats. Identical values can stand only once.
B1: SNARE complex formed with syntaxin-1([…]), synaptobrevin([…]), SNAP-25([…]) and SNAP-25([…]) (complex)
chain 1: [skipping about 250 residues]
chain 2: NRRLQQTQAQVDEVVDIMRVNVDKVLERDQKLSELDDRADALQAGASQFETSAAKLKRKYWWKNL
chain 3: LEEMQRRADQLADESLESTRRMLQLVEESKDAGIRTLVMLDEQGEQLERIEEGMDQINKDMKEAEKNLTDLG
chain 4: ARENEMDENLEQVSGIIGNLRHMALDMGNEIDTQNRQIDRIMEKADSNKTRIDEANQRATKML
B2: human SNAP25 (residues 141–203) (domain or fragment)
chain: B1 chain 4
B3: SNARE complex formed with syntaxin-1(191–253), synaptobrevin(29–93), SNAP-25(11–82) and SNAP-25(141–203) (complex)
chain 1: ALSEIETRHSEIIKLENSIRELHDMFMDMAMLVESQGEMIDRIEYNVEHAVDYVERAVSDTKK
chain 2: B1 chain 2
chain 3: B1 chain 3
chain 4: B1 chain 4

Columns and labels:
full-length rat Munc18-1 = full-length rat Munc18-1 (rat); test: NMR titration
[1] = biological target: rat Munc13-1(859–1407,1453–1531) fragment (MUN*) (rat, UniProt Q62768, in part, Munc13-1(859–1407,1453–1531)); test: NMR titration
[2] = biological target: cytoplasmic domain ([…]) of rat syntaxin-1A (rat); test: SEC
[3] = biological target: syntaxin-1 SNARE motif ([…]) (rat); test: assembly and ultrafiltration

Binder | binding result (full-length rat Munc18-1) | Kd [1] | binding result [2] | binding result [3]
B1 | binds | 26 µM and 35 µM | – | –
B2 | – | – | binds | binds
B3 | – | 28 ± 5 µM | – | –
